Reference: publication PMC3274752 (Cancer discovery, 2011)

System: NIH-3T3 cells expressing the L858R mutation in EGFR
Assay: Soft agar colony formation, NIH-3T3 expressing EGFR L858R

In the case of Cc1nc(Nc2ncc(C(=O)Nc3c(C)cccc3Cl)s2)cc(N2CCN(CCO)CC2)n1 [dasatinib], the “colony formation in soft agar” value was “inhibited the colony formation”.
